Results: patent publication US12533439B2, “Antibacterial wound treatments with clot-promoting properties” (University of Georgia Research Foundation, Inc., priority 2019, dated 2026)

Test system: 3T3 mouse fibroblast cells
Experiment: WST-8 (CCK-8) cell viability assay on dressing leachates
Assay type: cell-based
Conditions: 24-hour leachate

For `NC[C@H]1CC[C@H](C(=O)O)CC1` [TXA, tranexamic acid], the “cytotoxicity (relative cell viability)” value was “non-cytotoxic”.
